These results are taken from paper PMC3355094 (PLoS Pathogens, 2012).

Sequences of proteins named here, by UniProt entry; tags and fusion partners are left off. Residues count along the entry.
UniProt B3GA02, 2-142 limits assumed: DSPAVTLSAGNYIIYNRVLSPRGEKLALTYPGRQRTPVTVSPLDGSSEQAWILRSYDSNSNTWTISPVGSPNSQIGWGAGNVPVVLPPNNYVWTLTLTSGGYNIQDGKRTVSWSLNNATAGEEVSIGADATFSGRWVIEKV

Assay [1] deals with T1, CCL2 wild-type (Coprinopsis cinerea, UniProt B3GA02).
The target of assay [2] is T1, CCL2 wild-type. Nature of the assay: Isothermal titration calorimetry, carbohydrates binding to CCL2 wild-type.

Read-outs that look alike come from different tables or passages of the source.

Take `CO[C@@H]1O[C@H](CO)[C@@H](O[C@@H]2O[C@H](CO)[C@H](O)[C@H](O[C@]3(C(=O)O)C[C@H](O)[C@@H](NC(C)=O)[C@H]([C@H](O)[C@H](O)CO)O3)[C@H]2O)[C@H](O[C@@H]2O[C@@H](C)[C@@H](O)[C@@H](O)[C@@H]2O)[C@H]1NC(C)=O`: the Kd at CCL2 wild-type [1] worked out at 162 µM.
At CCL2 wild-type [2] (ITC, 299K, carbohydrate binding to CCL2 wild-type), Neu5Acα2,3Galβ1,4[Fucα1,3]GlcNAcβ1-OMe returned a Kd of 162 µM. For the same compound, the “binding better than Lewis^X by a factor” value on CCL2 wild-type [2] (relative to Lewis^X trisaccharide) was found to be 3.
